# Laboratory results from patent US9321756B2, “Azole compounds as PIM inhibitors” (priority 2011, dated 2016).
# Where two headings read alike, the source gives them in different places.
# Tests used:
# [1] = molecular target: full length recombinant Pim-3 (Homo sapiens (Human), UniProt Q86V86); experiment: Pim enzyme assay (HTRF, phosphorylation of biotinylated-BAD (S112) peptide), Pim-3; format: biochemical; details: read-out: Pim3 IC50
# [2] = test system: Pim-2 stably transfected U2OS human osteogenic sarcoma line; experiment: Pim cell assay U2OS (phospho-BAD normalized against total BAD), Pim-2 transfected; format: cell-based; details: read-out: U2OS Pim2_Cell_IC50
Structure (SMILES),IC50 [1] [nM],IC50 [2] [nM],IC50 ([1]; Pim-3 enzyme assay) [nM]
"Nc1nnc(-c2ccc3[nH]cc(-c4cccc(N5CCCC5)n4)c3c2)s1 [Example 14, 5-(3-(6-(pyrrolidin-1-yl)pyridin-2-yl)-1H-indol-5-yl)-1,3,4-thiadiazol-2-amine]",8.91,12100,–
"Nc1nnc(-c2ccc3[nH]cc(-c4cncc(NC5CC5)n4)c3c2)s1 [Example 15, 5-(3-(6-(cyclopropylamino)pyrazin-2-yl)-1H-indol-5-yl)-1,3,4-thiadiazol-2-amine]",3.39,2040,–
"CN1CCN(c2cccc(-c3c[nH]c4ccc(-c5nnc(N)s5)cc34)n2)CC1=O [Example 30, 4-(6-(5-(5-amino-1,3,4-thiadiazol-2-yl)-1H-indol-3-yl)pyridin-2-yl)-1-methylpiperazin-2-one]",–,5060,–
"Nc1nnc(-c2ccc3[nH]cc(-c4cccc(N5CCCC5)n4)c3c2)s1 [Example 176, 5-(3-(6-(1-pyrrolidinyl)-2-pyridinyl)-1H-indol-5-yl)-1,3,4-thiadiazol-2-amine]",–,–,14.5
